Ab-14 heavy chain CDR variants: yeast mating affinities

From the AlphaSeq antibody data of Engelhart et al. 2022 (doi:10.1038/s41597-022-01779-4), copy in the FLAb collection.

Target: peptide PDVDLGDISGINAS, taken from heptad repeat 2 (HR2) of SARS-CoV-2 spike.

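The parent was found by panning a naive human phage display library on the peptide. The library (AAYL49) carries one to three amino acid substitutions per variant, with no insertions or deletions. The assay is AlphaSeq: two haploid yeast populations carry antibody and antigen on their surface. Pairs that bind mate more often; barcode pairs of the diploids are counted by sequencing. Scores were corrected for input abundance and mapped to Kd with protein pairs of known affinity run in the same pool. There are three technical replicates.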

Parent: Ab-14, a human scFv built as VH, the linker GGGGSGGGGSGGGGS, VL. Only the CDRs of the heavy chain vary.
VH: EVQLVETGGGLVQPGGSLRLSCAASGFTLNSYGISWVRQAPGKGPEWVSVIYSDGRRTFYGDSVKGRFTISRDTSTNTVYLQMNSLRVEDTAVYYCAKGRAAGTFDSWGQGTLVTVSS
VL: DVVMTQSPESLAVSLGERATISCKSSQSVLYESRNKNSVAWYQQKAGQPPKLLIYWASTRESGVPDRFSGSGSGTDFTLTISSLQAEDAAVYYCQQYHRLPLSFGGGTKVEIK

Each variant is given by its three heavy chain CDRs, as the data file delimits them; those of the parent are GFTLNSYGIS, VIYSDGRRTFYGDSVK, GRAAGTFDS.
Values are log10 of the apparent Kd in nM; lower means stronger binding.
A pair that was not seen in that replicate is written "ND"; this usually means weak binding, but a binder can also be missed.

CDR-H1	CDR-H2	CDR-H3	replicates, log10 nM	empty controls
GFTLNSYGIS	VIYSDGRRTFYGDSVK	YLAARTFDS	ND / ND / ND	0 of 9
GFTLNSYGIS	VILSDGQRTFYGDSVV	GRAAGTFDS	ND / 3.59 / ND	0 of 9
GTTLNSYGIS	VIYSDGRRTFYGWSVK	GRAAGTFAS	ND / 3.34 / ND	2 of 9 (3.68)
GFTLNSYGIS	VIYSDGRRTFYGDSVK	GRAAGLTDS	ND / ND / ND	0 of 9
GFTLNSYGIS	VIYDDGRRTFYGRSVK	GRAAGTFAS	ND / ND / ND	0 of 9
GDTLNSDGIS	VIYSDGRRTFYGDSVK	GRAAGTFDV	ND / 3.63 / ND	0 of 9
GFTLNSYGIS	VIYSDGHRTFYGDSVW	CRAAGTFDS	1.72 / 1.86 / 1.56	2 of 9 (4.04)
GFTLNWYGIA	VIYSDGRRTFYGDSVK	GRAAGTFDS	ND / ND / ND	0 of 9
GFTLNSYGIS	YIYSDGRRTFYGDPVK	GRAAGSFDS	ND / ND / 2.74	2 of 9 (3.75)
GFTLNSYGFS	VIYSDGIRTFYGDSVK	GRAAGTFDS	5.39 / ND / ND	2 of 9 (4.42)
GFTLNEYGIS	VIYSDGIRTFNGDSVK	GRAAGTFDS	0.78 / 0.98 / 0.75	1 of 9 (3.48)
GFTINSYGIS	IIRSDGRRTFYGDSVK	GRAAGTFDS	3.73 / 3.81 / 3.77	4 of 9 (4.25)
TFTLNSYQIS	VIYSDGRRTFYGDRVK	GRAAGTFDS	3.46 / 2.61 / 3.44	4 of 9 (3.37)
GFTLNSYGIS	VIYSDGRGTFYGDSHK	GRAAGTFDS	ND / 3.17 / ND	5 of 9 (4.13)
GFTLNSYGIS	VGYSDGRRTFYGQAVK	GRAAGTFDS	4.26 / ND / ND	3 of 9 (3.87)
MFTLNSYGIS	VIYSDGRRTFYGDSVK	GRAAVTFDR	1.68 / 1.86 / 1.75	0 of 9
KFTRNSYGIS	VIYSDGRRTFYWDSVK	GRAAGTFDS	ND / 3.24 / ND	0 of 9
DFTLNSYGIS	VIYSDGRRTFYGDSVL	GRAAGTFDS	2.22 / 2.64 / 2.53	0 of 9
GFTLNSYGFS	VIYSAGRRTFYGDSVK	GWAAGTFDS	ND / ND / 4.24	0 of 9
GFTLKSYGIS	VIYSDGRRTFYWDSVK	GRAAGTFDY	ND / ND / ND	0 of 9
GFTLNSYGHS	VIYSDGRRTFYGDSVK	GRAAGTFHQ	ND / ND / ND	1 of 9 (2.51)
GMTLNSYGIS	VIFSDGRRTFYGDSVK	GRAAGGFDS	3.02 / 2.99 / 2.98	2 of 9 (3.93)
GFILNSYGIS	VIYSDGRRTFYGDSVK	GRTAGTFDS	1.20 / 1.33 / 1.30	0 of 9
GFTLNSYGIS	VIYSDGFRTFYGWSVY	GRAAGTFDS	4.15 / 3.55 / 3.53	1 of 9 (4.47)
GFTLNSYGIS	VIYSQGRRTFYGDSVK	GRAAGTFDS	ND / ND / ND	2 of 9 (3.13)
GFTLNSYGIS	VIYRDGRRMFYGDSVK	GRAAMTFDS	ND / ND / ND	0 of 9
GFTLNSYGIS	VIYQDGRRTFYGDSVK	GRTDGTFDS	ND / ND / ND	0 of 9
GFTLNSYGHS	VIYSCGRRTFYYDSVK	GRAAGTFDS	ND / 3.50 / ND	0 of 9
GFTLNSYGIS	VVYSDGRRTFYGDSVK	GRAAGTFGR	ND / ND / ND	0 of 9
GFTLNSYGIS	VIYSDGRRTFYGDDVK	GRAAGTFDG	1.11 / 1.11 / 0.83	2 of 9 (4.49)
GFTLNSYGAS	VIYSDGRRTFYGDSVK	GRAAGTFMF	ND / ND / ND	0 of 9
GFTLISYGIS	VIYSDGRRTFYGDSVK	GRAAGAFDS	2.06 / 2.42 / 2.30	4 of 9 (4.90)
GFTLNSYGIS	VIYSDGLRTIYGDSVK	GRAAGGFDS	4.66 / ND / 3.32	1 of 9 (5.37)
GFTLNSYGIS	VIHSDGRRTFNGDSVG	GRAAGTFDS	ND / ND / ND	4 of 9 (3.95)
GFTLNDYGIS	VIYSDGRQPFYGDSVK	GRAAGTFDS	4.72 / ND / ND	3 of 9 (3.13)
GFTLNSYGIS	VIYSDPRVTFYGDSVK	GRAAGTFDS	ND / ND / ND	3 of 9 (4.40)
GFTLNSYGNS	VIYSDGRRQFYPDSVK	GRAAGTFDS	ND / ND / ND	0 of 9
GFSLNSYGIS	VIYSDRRRTFYADSVK	GRAAGTFDS	ND / 4.29 / ND	2 of 9 (3.41)
GFTLNSYGIS	VIYSDGRRTFDPDSVK	GRAAGHFDS	3.65 / ND / 5.04	2 of 9 (4.02)
GFTLNSYGIS	VIYSQGRRTFYGDQVC	GRAAGTFDS	ND / 4.16 / ND	2 of 9 (3.59)
GFTLNQYGIS	VIMSDGRRTFYGDSVK	GRADGTFDS	ND / 4.01 / 4.76	4 of 9 (4.02)
GFTLNSYGIS	VIYSDGRITFYGDSVK	MRAAGTSDS	ND / ND / ND	0 of 9
GFTLNSYGIS	AIYSDERRTFYGDSVK	GRAAGTFDS	ND / ND / ND	2 of 9 (2.63)
GFTLNSYGIS	VIYSDGRRTFYLDSVK	NRKAGTFDS	ND / 3.66 / 6.15	3 of 9 (4.14)
GFTLNSYGIS	FIYSDWRRTFYGDSVK	GRAGGTFDS	ND / ND / ND	2 of 9 (4.20)
GFTLNSYGIS	VHYSDGRRTFYGDSVK	GRAAWTFGS	ND / ND / ND	0 of 9

Excerpt, the final 3 entries:

CDR-H1	CDR-H2	CDR-H3	replicates, log10 nM	empty controls
GFTLNSYGIS	VIYSDGRRTFYLDSVK	NRKAGTFDS	ND / 3.66 / 6.15	3 of 9 (4.14)
GFTLNSYGIS	FIYSDWRRTFYGDSVK	GRAGGTFDS	ND / ND / ND	2 of 9 (4.20)
GFTLNSYGIS	VHYSDGRRTFYGDSVK	GRAAWTFGS	ND / ND / ND	0 of 9

Empty control strains, which show no peptide, gave a signal in 15% of pairings with library AAYL49; the median was 4.06 and 95% of these signals were weaker than 2.83. No background was subtracted. The control count says in how many pairings with the empty strains this scFv gave a signal, with their mean in brackets.
Parent in this assay: reference entry 0.65, copy in this library 4.11 (one replicate of three).